Apparent affinities of Ab-14 variants for a coronavirus HR2 peptide

Values reported by Li et al. 2023, doi:10.1038/s41467-023-39022-2 (FLAb copy).

All variants were tested on one target, the spike HR2 peptide PDVDLGDISGINAS (SARS-CoV-2).

Parent scFv Ab-14: VH joined to VL by a 15-residue (Gly4Ser)3 linker. Changes lie in the light chain CDRs alone.
VH: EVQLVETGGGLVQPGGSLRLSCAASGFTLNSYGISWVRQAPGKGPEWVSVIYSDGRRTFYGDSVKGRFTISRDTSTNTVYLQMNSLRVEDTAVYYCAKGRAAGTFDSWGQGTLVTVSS
VL: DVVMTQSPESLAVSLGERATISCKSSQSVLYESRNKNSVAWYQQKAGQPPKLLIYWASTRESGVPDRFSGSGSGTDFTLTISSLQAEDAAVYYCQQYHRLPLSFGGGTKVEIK

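The starting antibody came from a phage panning campaign against this peptide. This is the validation round: designs drawn from the data on random variants, tested in the same kind of assay. Several design methods are mixed in this list. In AlphaSeq, yeast of one mating type display the scFv and yeast of the other type display the target. After mating in shaken culture at 30 °C for 16 h, diploids were selected and their barcode pairs sequenced. Scores were corrected for input abundance and mapped to Kd with protein pairs of known affinity run in the same pool. Mating was done six times.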

Substitutions are numbered in sequence along the VL above, starting at 1 (not Kabat).
Variants here have at most six changes.
Each Kd is an estimate from the mating assay, the geometric mean of the replicates in which the pair was seen; lower is stronger.
Where no diploid with the target was found in any replicate, the entry reads "no signal": below detection, most likely a poor binder, though not proof of it.
Some sequences occur more than once in the pool; their replicates are pooled.

The variant S25F S28E Y31M K36M W56N S62E showed 1.0 nM (6 of 6 replicates). The variant S25L Y31K V39I S103Q gave 5.6 nM (6 of 6 replicates). The variant S25F S28K S33H N35T W56N gave 1.2 nM (6 of 6 replicates). For S25F V29D N35T S38G W56N, the assay gave 1.4 nM (6 of 6 replicates). With N37H W56H R99Y the result was 1.1 µM (4 of 6 replicates).

For S26G Q27M S28G W56G, the assay gave 730 pM (6 of 6 replicates). The variant L30T K36R S103A showed 210 nM (1 of 6 replicates). The variant L30E R34E S103Y gave 50 nM (2 of 6 replicates). For V29D K36G W56N A57G S62D, the assay gave 1.7 nM (6 of 6 replicates). With Y31N E32H Y97K the result was no signal (0 of 6 replicates).

For L30M Y31M K36A W56D, the assay gave 740 pM (6 of 6 replicates). With S25L S26Q V29M L30G W56N T59Q the result was 820 pM (6 of 6 replicates). For S25V V29Q N35M N37Q W56N T59E, the assay gave 2.2 nM (6 of 6 replicates). For Q27I V29Y Y31L W56E, the assay gave 1.0 nM (6 of 6 replicates). For R34G E61S, the assay gave 62 nM (4 of 6 replicates).

The variant S26L Q27W Y31L R34N W56H S62D showed 6.9 nM (6 of 6 replicates). The variant S25V S26R V29T W56S gave 970 pM (6 of 6 replicates). For S25V V29W Y31G W56E E61Q, the assay gave 760 pM (6 of 6 replicates). For S25V V29Q W56Q, the assay gave 620 pM (6 of 6 replicates). For K24H Q27P V29T W56N, the assay gave 2.2 nM (6 of 6 replicates).

The variant K24H S25L Q27P W56N showed 760 pM (6 of 6 replicates). The variant S25L S26V W56N T59Q E61L showed 4.3 nM (6 of 6 replicates). The variant Q27T W56N T59C gave 4.9 nM (6 of 6 replicates). For V29E Y31P W56D H98W, the assay gave 840 pM (6 of 6 replicates). With Q27S L30H the result was no signal (0 of 6 replicates).

The variant R34G W56Q S62D showed 1.8 nM (6 of 6 replicates). The variant V29W K36F N37W W56G S62D gave 4.6 nM (6 of 6 replicates). With S25L E32T K36H Y97P the result was no signal (0 of 6 replicates). The variant S26Y Q27I V29E W56E showed 25 nM (5 of 6 replicates). For K36H W56E H98A, the assay gave 1.1 nM (6 of 6 replicates).

The variant S25L S33E W56D showed 950 pM (6 of 6 replicates). For K24H S25L S33Q W56N, the assay gave 700 pM (6 of 6 replicates). For S25V L30W W56E, the assay gave 2.1 nM (6 of 6 replicates). For K24S W56C S62V Q95N, the assay gave no signal (0 of 6 replicates). For W56H E61I S103L, the assay gave 16 nM (6 of 6 replicates).

The variant Q27I V29Y E32S N35M W56E gave 6.5 nM (6 of 6 replicates). The variant Q27W Y31M W56D E61S gave 1.4 nM (6 of 6 replicates). The variant S25I R34C W56G E61L gave 2.9 nM (6 of 6 replicates). The variant K24Y Y31K N35T W56S showed 11 nM (6 of 6 replicates). The variant S25V S26P V29Q W56N showed 650 pM (6 of 6 replicates).

The variant S25L L30G Y31G W56E S58Q S62Q gave 1.3 nM (6 of 6 replicates). With S25F S26Q W56E the result was 410 pM (6 of 6 replicates). For L30D W56G, the assay gave 970 pM (6 of 6 replicates). With S25L W56D the result was 330 pM (12 of 12 replicates). For S26G S28G V29E W56G T59Q, the assay gave 400 pM (6 of 6 replicates).

The variant S26Y Q96T gave 9.1 nM (6 of 6 replicates).

The 7 strongest on average among those seen in every replicate, once more:

With S25L W56D the result was 330 pM (12 of 12 replicates).
With S26G S28G V29E W56G T59Q the result was 400 pM (6 of 6 replicates).
With S25F S26Q W56E the result was 410 pM (6 of 6 replicates).
With S25V V29Q W56Q the result was 620 pM (6 of 6 replicates).
With S25V S26P V29Q W56N the result was 650 pM (6 of 6 replicates).
With K24H S25L S33Q W56N the result was 700 pM (6 of 6 replicates).
With S26G Q27M S28G W56G the result was 730 pM (6 of 6 replicates).

The authors averaged sequences with at least three values out of six and counted those with two or fewer as poor binders.
Empty control strains, which show no peptide, gave a signal in 4% of pairings with all light chain designs; the median was 430 nM and 95% of these signals were weaker than 38 nM. No background was subtracted.
A sequence measured in both rounds can read differently, since the two assays cover different ranges.